Reference: patent US20140100156A1 (SANOFI, priority 2012, published 2014)

Chains of the proteins cited; added tags and fusions are not shown. Residues count along the entry.
UniProt P47871, 26-477: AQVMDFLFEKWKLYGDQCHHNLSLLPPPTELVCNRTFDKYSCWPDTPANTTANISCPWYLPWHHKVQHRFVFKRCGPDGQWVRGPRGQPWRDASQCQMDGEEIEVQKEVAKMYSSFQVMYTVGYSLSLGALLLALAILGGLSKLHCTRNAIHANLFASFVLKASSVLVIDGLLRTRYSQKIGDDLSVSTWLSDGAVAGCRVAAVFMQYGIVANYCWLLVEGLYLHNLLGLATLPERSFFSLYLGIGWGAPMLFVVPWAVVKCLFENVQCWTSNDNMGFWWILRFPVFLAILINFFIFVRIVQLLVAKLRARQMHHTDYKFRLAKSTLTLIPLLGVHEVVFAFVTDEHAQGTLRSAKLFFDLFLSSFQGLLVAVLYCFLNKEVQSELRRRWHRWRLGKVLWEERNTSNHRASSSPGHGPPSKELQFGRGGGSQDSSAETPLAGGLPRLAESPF
UniProt P43220, 24-463: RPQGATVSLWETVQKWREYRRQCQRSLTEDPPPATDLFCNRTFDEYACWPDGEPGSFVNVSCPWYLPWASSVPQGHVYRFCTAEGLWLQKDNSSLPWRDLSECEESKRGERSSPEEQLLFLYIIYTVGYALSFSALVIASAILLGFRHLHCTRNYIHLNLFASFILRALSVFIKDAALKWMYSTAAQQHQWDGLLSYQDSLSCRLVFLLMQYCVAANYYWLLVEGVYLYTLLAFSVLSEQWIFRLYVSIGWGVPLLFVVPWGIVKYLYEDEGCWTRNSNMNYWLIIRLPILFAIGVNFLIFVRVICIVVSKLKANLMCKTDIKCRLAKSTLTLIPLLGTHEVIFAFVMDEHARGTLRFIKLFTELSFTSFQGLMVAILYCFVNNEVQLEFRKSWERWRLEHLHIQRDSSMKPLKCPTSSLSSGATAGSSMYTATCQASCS

How the values were obtained:
human glucagon receptor = target: T1, human glucagon receptor (Homo sapiens, UniProt P47871); test: cAMP response (HTRF) of HEK-293 cells stably expressing human glucagon receptor; type: cell-based; settings: Table 5; cAMP, HEK-293; read-out: EC50 hGlucagon-R
T1 construct: expressed in transfected cells; host or cells: HEK-293

human GLP-1 receptor = target: T2, human GLP-1 receptor (Homo sapiens, UniProt P43220); test: cAMP response (HTRF) of HEK-293 cells stably expressing human GLP-1 receptor; type: cell-based; settings: Table 5; cAMP, HEK-293; read-out: EC50 hGLP-1R
T2 construct: expressed in transfected cells; host or cells: HEK-293

Row | Structure (SMILES) | EC50 (human glucagon receptor) [pM] | EC50 (human GLP-1 receptor) [pM]
1 | CCCCCCCCCCCCCCCCCCCCC(=O)N[C@@H](CCC(=O)NCCCC[C@H](NC(=O)[C@H](CCC(N)=O)NC(=O)[C@H](CCCCN)NC(=O)[C@H](CO)NC(=O)[C@H](CC(C)C)NC(=O)[C@H](CC(=O)O)NC(=O)[C@H](CO)NC(=O)[C@@H](NC(=O)[C@H](Cc1ccccc1)NC(=O)[C@@H](NC(=O)CNC(=O)[C@H](CCC(N)=O)NC(=O)C(C)(C)NC(=O)[C@@H](N)Cc1c[nH]cn1)[C@@H](C)O)[C@@H](C)O)C(=O)N[C@@H](CCC(=O)O)C(=O)N[C@@H](CO)C(=O)N[C@@H](CCCNC(=N)N)C(=O)N[C@@H](C)C(=O)N[C@@H](C)C(=O)N[C@@H](CCC(N)=O)C(=O)N[C@@H](CC(C)C)C(=O)N[C@@H](Cc1ccccc1)C(=O)N[C@H](C(=O)N[C@@H](CCC(=O)O)C(=O)N[C@@H](Cc1c[nH]c2ccccc12)C(=O)N[C@@H](CC(C)C)C(=O)N[C@@H](CCCCN)C(=O)N[C@@H](C)C(=O)N[C@H](C)C(=O)NCC(=O)N1CCC[C@H]1C(=O)N[C@@H](CO)C(=O)N[C@@H](CO)C(=O)NCC(=O)N[C@@H](C)C(=O)N1CCC[C@H]1C(=O)N1CCC[C@H]1C(=O)N1CCC[C@H]1C(=O)N[C@@H](CO)C(N)=O)[C@@H](C)CC)C(=O)O [compound 204] | 12.5 | 34.1
2 | CCCCCCCCCCCCCCCCCC(=O)N[C@@H](CCC(=O)NCCCC[C@H](NC(=O)[C@H](CCC(N)=O)NC(=O)[C@H](CCCCN)NC(=O)[C@H](CO)NC(=O)[C@H](CC(C)C)NC(=O)[C@H](CC(=O)O)NC(=O)[C@H](CO)NC(=O)[C@@H](NC(=O)[C@H](Cc1ccccc1)NC(=O)[C@@H](NC(=O)CNC(=O)[C@H](CCC(N)=O)NC(=O)C(C)(C)NC(=O)[C@@H](N)Cc1c[nH]cn1)[C@@H](C)O)[C@@H](C)O)C(=O)N[C@@H](CCC(=O)O)C(=O)N[C@@H](CO)C(=O)N[C@@H](CCCNC(=N)N)C(=O)N[C@@H](CCCNC(=N)N)C(=O)N[C@@H](C)C(=O)N[C@@H](CCC(N)=O)C(=O)N[C@@H](CC(C)C)C(=O)N[C@@H](Cc1ccccc1)C(=O)N[C@H](C(=O)N[C@@H](CCC(=O)O)C(=O)N[C@@H](Cc1c[nH]c2ccccc12)C(=O)N[C@@H](CC(C)C)C(=O)N[C@@H](CCCCN)C(=O)N[C@@H](C)C(=O)N[C@H](C)C(=O)NCC(=O)N1CCC[C@H]1C(=O)N[C@@H](CO)C(=O)N[C@@H](CO)C(=O)NCC(=O)N[C@@H](C)C(=O)N1CCC[C@H]1C(=O)N1CCC[C@H]1C(=O)N1CCC[C@H]1C(=O)N[C@@H](CO)C(N)=O)[C@@H](C)CC)C(=O)O [compound 205] | 5.2 | 12.3
3 | CCCCCCCCCCCCCCCCCC(=O)N[C@@H](CCC(=O)NCCCC[C@H](NC(=O)[C@H](CCC(N)=O)NC(=O)[C@H](CCCCN)NC(=O)[C@H](CO)NC(=O)[C@H](CC(C)C)NC(=O)[C@H](CC(=O)O)NC(=O)[C@H](CO)NC(=O)[C@@H](NC(=O)[C@H](Cc1ccccc1)NC(=O)[C@@H](NC(=O)CNC(=O)[C@H](CCC(N)=O)NC(=O)C(C)(C)NC(=O)[C@@H](N)Cc1c[nH]cn1)[C@@H](C)O)[C@@H](C)O)C(=O)N[C@@H](CC(=O)O)C(=O)N[C@@H](CCC(=O)O)C(=O)N[C@@H](CCC(N)=O)C(=O)N[C@@H](CCCCN)C(=O)N[C@@H](C)C(=O)N[C@@H](CCCCN)C(=O)N[C@@H](CC(C)C)C(=O)N[C@@H](Cc1ccccc1)C(=O)N[C@H](C(=O)N[C@@H](CCC(=O)O)C(=O)N[C@@H](Cc1c[nH]c2ccccc12)C(=O)N[C@@H](CC(C)C)C(=O)N[C@@H](CCCCN)C(=O)N[C@@H](CO)C(=O)NCC(=O)NCC(=O)N1CCC[C@H]1C(=O)N[C@@H](CO)C(=O)N[C@@H](CO)C(=O)NCC(=O)N[C@@H](C)C(=O)N1CCC[C@H]1C(=O)N1CCC[C@H]1C(=O)N1CCC[C@H]1C(=O)N[C@@H](CO)C(N)=O)[C@@H](C)CC)C(=O)O [compound 206] | 12.5 | 3.2
4 | CCCCCCCCCCCCCCCC(=O)N[C@@H](CCC(=O)N[C@@H](CCC(=O)NCCCC[C@H](NC(=O)[C@H](CCC(N)=O)NC(=O)[C@H](CCCCN)NC(=O)[C@H](CO)NC(=O)[C@H](CC(C)C)NC(=O)[C@H](CC(=O)O)NC(=O)[C@H](CO)NC(=O)[C@@H](NC(=O)[C@H](Cc1ccccc1)NC(=O)[C@@H](NC(=O)CNC(=O)[C@H](CCC(N)=O)NC(=O)C(C)(C)NC(=O)[C@@H](N)Cc1c[nH]cn1)[C@@H](C)O)[C@@H](C)O)C(=O)N[C@@H](CC(=O)O)C(=O)N[C@@H](CCC(=O)O)C(=O)N[C@@H](CCC(N)=O)C(=O)N[C@@H](CCCNC(=N)N)C(=O)N[C@@H](C)C(=O)N[C@@H](CCCCN)C(=O)N[C@@H](CCC(=O)O)C(=O)N[C@@H](Cc1ccccc1)C(=O)N[C@H](C(=O)N[C@@H](CCC(=O)O)C(=O)N[C@@H](Cc1c[nH]c2ccccc12)C(=O)N[C@@H](CC(C)C)C(=O)N[C@@H](CCCCN)C(=O)N[C@@H](CO)C(=O)NCC(=O)NCC(=O)N1CCC[C@H]1C(=O)N[C@@H](CO)C(=O)N[C@@H](CO)C(=O)NCC(=O)N[C@@H](C)C(=O)N1CCC[C@H]1C(=O)N1CCC[C@H]1C(=O)N1CCC[C@H]1C(=O)N[C@@H](CO)C(N)=O)[C@@H](C)CC)C(=O)O)C(=O)O [compound 207] | 1.2 | 1.1
5 | CCCCCCCCCCCCCCCCCC(=O)N[C@@H](CCC(=O)NCCCC[C@H](NC(=O)[C@H](CCC(N)=O)NC(=O)[C@H](CCCCN)NC(=O)[C@H](CO)NC(=O)[C@H](CC(C)C)NC(=O)[C@H](CC(=O)O)NC(=O)[C@H](CO)NC(=O)[C@@H](NC(=O)[C@H](Cc1ccccc1)NC(=O)[C@@H](NC(=O)CNC(=O)[C@H](CCC(N)=O)NC(=O)C(C)(C)NC(=O)[C@@H](N)Cc1c[nH]cn1)[C@@H](C)O)[C@@H](C)O)C(=O)N[C@@H](CC(=O)O)C(=O)N[C@@H](CCCCN)C(=O)N[C@@H](CCCNC(=N)N)C(=O)N[C@@H](CCCNC(=N)N)C(=O)N[C@@H](C)C(=O)N[C@@H](CCC(N)=O)C(=O)N[C@@H](CC(=O)O)C(=O)N[C@@H](Cc1ccccc1)C(=O)N[C@H](C(=O)N[C@@H](CCC(=O)O)C(=O)N[C@@H](Cc1c[nH]c2ccccc12)C(=O)N[C@@H](CC(C)C)C(=O)N[C@@H](CCCCN)C(=O)N[C@@H](C)C(=O)N[C@H](C)C(=O)NCC(=O)N1CCC[C@H]1C(=O)N[C@@H](CO)C(=O)N[C@@H](CO)C(=O)NCC(=O)N[C@@H](C)C(=O)N1CCC[C@H]1C(=O)N1CCC[C@H]1C(=O)N1CCC[C@H]1C(=O)N[C@@H](CO)C(N)=O)[C@@H](C)CC)C(=O)O [compound 209] | 1.9 | 5.4
6 | CCCCCCCCCCCCCCCCCC(=O)N[C@@H](CCC(=O)NCCCC[C@H](NC(=O)[C@H](CCC(N)=O)NC(=O)[C@H](CCCCN)NC(=O)[C@H](CO)NC(=O)[C@H](CC(C)C)NC(=O)[C@H](CC(=O)O)NC(=O)[C@H](CO)NC(=O)[C@@H](NC(=O)[C@H](Cc1ccccc1)NC(=O)[C@@H](NC(=O)CNC(=O)[C@H](CCC(N)=O)NC(=O)C(C)(C)NC(=O)[C@@H](N)Cc1c[nH]cn1)[C@@H](C)O)[C@@H](C)O)C(=O)N[C@@H](CC(=O)O)C(=O)N[C@@H](CCCCN)C(=O)N[C@@H](CCCNC(=N)N)C(=O)N[C@@H](CCCNC(=N)N)C(=O)N[C@@H](C)C(=O)N[C@@H](CCC(N)=O)C(=O)N[C@@H](CC(C)C)C(=O)N[C@@H](Cc1ccccc1)C(=O)N[C@H](C(=O)N[C@@H](CCC(=O)O)C(=O)N[C@@H](Cc1c[nH]c2ccccc12)C(=O)N[C@@H](CC(C)C)C(=O)N[C@@H](CCCCN)C(=O)N[C@@H](C)C(=O)N[C@H](C)C(=O)NCC(=O)N1CCC[C@H]1C(=O)N[C@@H](CO)C(=O)N[C@@H](CO)C(=O)NCC(=O)N[C@@H](C)C(=O)N1CCC[C@H]1C(=O)N1CCC[C@H]1C(=O)N1CCC[C@H]1C(=O)N[C@@H](CO)C(N)=O)[C@@H](C)CC)C(=O)O [compound 210] | 3 | 6.7
7 | CCCCCCCCCCCCCCCCCC(=O)N[C@@H](CCC(=O)NCCCC[C@H](NC(=O)[C@H](CCC(N)=O)NC(=O)[C@H](CCCCN)NC(=O)[C@H](CO)NC(=O)[C@H](CC(C)C)NC(=O)[C@H](CC(=O)O)NC(=O)[C@H](CO)NC(=O)[C@@H](NC(=O)[C@H](Cc1ccccc1)NC(=O)[C@@H](NC(=O)CNC(=O)[C@H](CCC(N)=O)NC(=O)C(C)(C)NC(=O)[C@@H](N)Cc1c[nH]cn1)[C@@H](C)O)[C@@H](C)O)C(=O)N[C@@H](CC(=O)O)C(=O)N[C@@H](CCCCN)C(=O)N[C@@H](CCCNC(=N)N)C(=O)N[C@@H](C)C(=O)N[C@@H](C)C(=O)N[C@@H](CCC(N)=O)C(=O)N[C@@H](CC(C)C)C(=O)N[C@@H](Cc1ccccc1)C(=O)N[C@H](C(=O)N[C@@H](CCC(=O)O)C(=O)N[C@@H](Cc1c[nH]c2ccccc12)C(=O)N[C@@H](CC(C)C)C(=O)N[C@@H](CCCCN)C(=O)N[C@@H](C)C(=O)N[C@H](C)C(=O)NCC(=O)N1CCC[C@H]1C(=O)N[C@@H](CO)C(=O)N[C@@H](CO)C(=O)NCC(=O)N[C@@H](C)C(=O)N1CCC[C@H]1C(=O)N1CCC[C@H]1C(=O)N1CCC[C@H]1C(=O)N[C@@H](CO)C(N)=O)[C@@H](C)CC)C(=O)O [compound 211] | 26.4 | 15.5
8 | CCCCCCCCCCCCCCCCCCCCC(=O)N[C@@H](CCC(=O)NCCCC[C@H](NC(=O)[C@H](CCC(N)=O)NC(=O)[C@H](CCCCN)NC(=O)[C@H](CO)NC(=O)[C@H](CC(C)C)NC(=O)[C@H](CC(=O)O)NC(=O)[C@H](CO)NC(=O)[C@@H](NC(=O)[C@H](Cc1ccccc1)NC(=O)[C@@H](NC(=O)CNC(=O)[C@H](CCC(N)=O)NC(=O)C(C)(C)NC(=O)[C@@H](N)Cc1c[nH]cn1)[C@@H](C)O)[C@@H](C)O)C(=O)N[C@@H](CC(=O)O)C(=O)N[C@@H](CCCCN)C(=O)N[C@@H](CCCNC(=N)N)C(=O)N[C@@H](C)C(=O)N[C@@H](C)C(=O)N[C@@H](CCC(N)=O)C(=O)N[C@@H](CC(C)C)C(=O)N[C@@H](Cc1ccccc1)C(=O)N[C@H](C(=O)N[C@@H](CCC(=O)O)C(=O)N[C@@H](Cc1c[nH]c2ccccc12)C(=O)N[C@@H](CC(C)C)C(=O)N[C@@H](CCCCN)C(=O)N[C@@H](C)C(=O)N[C@H](C)C(=O)NCC(=O)N1CCC[C@H]1C(=O)N[C@@H](CO)C(=O)N[C@@H](CO)C(=O)NCC(=O)N[C@@H](C)C(=O)N1CCC[C@H]1C(=O)N1CCC[C@H]1C(=O)N1CCC[C@H]1C(=O)N[C@@H](CO)C(N)=O)[C@@H](C)CC)C(=O)O [compound 212] | 6.6 | 14.1
